Experiments:
Assay in all cases: dual luciferase reporter gene assay in PC3 cells
[1] = target: WT-AR (hAR) (Homo sapiens, UniProt P10275, W742C); conditions: read-out: AR transcriptional activity IC50 [μM] / W741C; antagonist mode, […] DHT, […] h; stated gain
[2] = target: WT-AR (hAR) (Homo sapiens, UniProt P10275, T878G); conditions: read-out: AR transcriptional activity IC50 [μM] / T877G; antagonist mode, […] DHT, […] h; stated gain
[3] = target: WT-AR (hAR) (Homo sapiens, UniProt P10275, F877L/T878A); conditions: read-out: AR transcriptional activity IC50 [μM] / F876L/T877A; antagonist mode, […] DHT, […] h; stated gain
[4] = target: WT-AR (hAR) (Homo sapiens, UniProt P10275, F877L); conditions: read-out: AR transcriptional activity IC50 [μM] / F876L; antagonist mode, […] DHT, […] h; stated gain
[5] = target: WT-AR (hAR) (Homo sapiens, UniProt P10275); conditions: read-out: AR transcriptional activity IC50 [μM] / WT-AR; antagonist mode, […] DHT, […] h

Protein sequences, listed by entry. Tags and fused reporters are not part of them.
UniProt P10275, whole entry: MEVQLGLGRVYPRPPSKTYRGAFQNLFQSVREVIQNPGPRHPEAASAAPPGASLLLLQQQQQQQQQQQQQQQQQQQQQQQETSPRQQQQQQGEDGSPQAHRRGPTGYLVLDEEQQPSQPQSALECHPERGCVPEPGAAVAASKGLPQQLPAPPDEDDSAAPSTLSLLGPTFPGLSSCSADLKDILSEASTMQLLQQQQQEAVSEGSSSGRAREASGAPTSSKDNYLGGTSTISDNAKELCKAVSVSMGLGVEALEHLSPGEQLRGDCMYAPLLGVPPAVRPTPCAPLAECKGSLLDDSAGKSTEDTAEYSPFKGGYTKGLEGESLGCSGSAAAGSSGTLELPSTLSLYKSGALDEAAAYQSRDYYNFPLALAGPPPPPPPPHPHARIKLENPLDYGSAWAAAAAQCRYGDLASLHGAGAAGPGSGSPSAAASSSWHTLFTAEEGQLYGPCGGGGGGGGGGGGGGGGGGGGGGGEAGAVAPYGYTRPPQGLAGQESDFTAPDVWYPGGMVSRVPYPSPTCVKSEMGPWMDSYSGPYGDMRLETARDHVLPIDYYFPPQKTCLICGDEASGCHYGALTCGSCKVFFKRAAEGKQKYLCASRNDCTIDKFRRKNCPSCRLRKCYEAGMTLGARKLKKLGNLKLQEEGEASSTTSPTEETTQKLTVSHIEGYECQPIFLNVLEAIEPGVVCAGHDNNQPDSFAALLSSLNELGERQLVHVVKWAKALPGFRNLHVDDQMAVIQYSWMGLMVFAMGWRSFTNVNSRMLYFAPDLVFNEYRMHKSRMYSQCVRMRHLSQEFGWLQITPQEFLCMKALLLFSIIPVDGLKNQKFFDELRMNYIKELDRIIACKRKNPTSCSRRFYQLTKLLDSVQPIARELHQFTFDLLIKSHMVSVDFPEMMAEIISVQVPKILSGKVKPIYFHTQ
UniProt P10275, whole entry F877L: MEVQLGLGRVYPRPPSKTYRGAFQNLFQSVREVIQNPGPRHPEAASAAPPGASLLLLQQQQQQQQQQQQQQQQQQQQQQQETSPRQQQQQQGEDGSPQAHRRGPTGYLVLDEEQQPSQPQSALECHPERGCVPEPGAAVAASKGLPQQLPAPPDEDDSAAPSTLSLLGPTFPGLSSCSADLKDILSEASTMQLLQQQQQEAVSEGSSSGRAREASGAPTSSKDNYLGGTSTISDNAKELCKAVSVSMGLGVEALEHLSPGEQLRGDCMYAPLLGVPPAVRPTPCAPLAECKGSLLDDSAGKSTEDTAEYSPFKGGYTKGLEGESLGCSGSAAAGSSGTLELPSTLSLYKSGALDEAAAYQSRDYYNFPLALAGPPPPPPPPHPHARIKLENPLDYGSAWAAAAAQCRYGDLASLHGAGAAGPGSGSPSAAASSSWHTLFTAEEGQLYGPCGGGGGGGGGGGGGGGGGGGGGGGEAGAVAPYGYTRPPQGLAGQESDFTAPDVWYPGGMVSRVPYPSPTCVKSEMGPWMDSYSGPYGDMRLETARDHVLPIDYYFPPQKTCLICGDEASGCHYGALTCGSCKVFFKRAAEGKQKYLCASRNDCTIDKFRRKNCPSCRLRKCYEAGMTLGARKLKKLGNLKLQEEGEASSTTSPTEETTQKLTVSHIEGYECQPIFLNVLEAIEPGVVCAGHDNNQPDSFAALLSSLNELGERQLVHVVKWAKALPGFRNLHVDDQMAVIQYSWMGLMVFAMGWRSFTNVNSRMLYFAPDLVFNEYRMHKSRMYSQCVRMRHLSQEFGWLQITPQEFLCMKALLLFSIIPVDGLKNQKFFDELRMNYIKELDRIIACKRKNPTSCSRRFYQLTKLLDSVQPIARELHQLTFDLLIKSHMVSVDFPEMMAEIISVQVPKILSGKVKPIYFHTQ
UniProt P10275, whole entry T878G: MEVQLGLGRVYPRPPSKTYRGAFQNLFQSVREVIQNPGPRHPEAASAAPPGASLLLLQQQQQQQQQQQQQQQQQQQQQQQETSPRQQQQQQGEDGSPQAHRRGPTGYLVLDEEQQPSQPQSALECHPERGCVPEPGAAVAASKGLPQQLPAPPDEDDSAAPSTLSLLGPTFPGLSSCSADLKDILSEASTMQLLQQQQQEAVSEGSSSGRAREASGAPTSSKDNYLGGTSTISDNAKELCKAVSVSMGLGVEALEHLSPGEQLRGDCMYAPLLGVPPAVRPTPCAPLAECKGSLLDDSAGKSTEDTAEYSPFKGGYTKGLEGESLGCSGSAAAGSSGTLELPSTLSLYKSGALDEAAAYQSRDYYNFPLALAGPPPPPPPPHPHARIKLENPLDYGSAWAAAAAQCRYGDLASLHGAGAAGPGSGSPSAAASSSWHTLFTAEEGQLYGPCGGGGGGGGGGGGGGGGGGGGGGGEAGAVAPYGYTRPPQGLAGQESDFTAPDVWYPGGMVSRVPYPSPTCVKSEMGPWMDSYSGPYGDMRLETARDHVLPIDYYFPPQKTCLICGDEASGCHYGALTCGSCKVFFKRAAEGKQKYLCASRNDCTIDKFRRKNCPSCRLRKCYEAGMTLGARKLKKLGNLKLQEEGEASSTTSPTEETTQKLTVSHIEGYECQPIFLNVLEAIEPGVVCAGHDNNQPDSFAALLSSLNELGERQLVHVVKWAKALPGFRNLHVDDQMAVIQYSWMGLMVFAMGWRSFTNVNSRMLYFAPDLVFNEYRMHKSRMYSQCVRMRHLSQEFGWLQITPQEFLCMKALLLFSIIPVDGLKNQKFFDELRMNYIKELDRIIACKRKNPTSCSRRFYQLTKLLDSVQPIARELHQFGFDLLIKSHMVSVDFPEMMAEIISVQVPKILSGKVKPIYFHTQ
UniProt P10275, whole entry W742C: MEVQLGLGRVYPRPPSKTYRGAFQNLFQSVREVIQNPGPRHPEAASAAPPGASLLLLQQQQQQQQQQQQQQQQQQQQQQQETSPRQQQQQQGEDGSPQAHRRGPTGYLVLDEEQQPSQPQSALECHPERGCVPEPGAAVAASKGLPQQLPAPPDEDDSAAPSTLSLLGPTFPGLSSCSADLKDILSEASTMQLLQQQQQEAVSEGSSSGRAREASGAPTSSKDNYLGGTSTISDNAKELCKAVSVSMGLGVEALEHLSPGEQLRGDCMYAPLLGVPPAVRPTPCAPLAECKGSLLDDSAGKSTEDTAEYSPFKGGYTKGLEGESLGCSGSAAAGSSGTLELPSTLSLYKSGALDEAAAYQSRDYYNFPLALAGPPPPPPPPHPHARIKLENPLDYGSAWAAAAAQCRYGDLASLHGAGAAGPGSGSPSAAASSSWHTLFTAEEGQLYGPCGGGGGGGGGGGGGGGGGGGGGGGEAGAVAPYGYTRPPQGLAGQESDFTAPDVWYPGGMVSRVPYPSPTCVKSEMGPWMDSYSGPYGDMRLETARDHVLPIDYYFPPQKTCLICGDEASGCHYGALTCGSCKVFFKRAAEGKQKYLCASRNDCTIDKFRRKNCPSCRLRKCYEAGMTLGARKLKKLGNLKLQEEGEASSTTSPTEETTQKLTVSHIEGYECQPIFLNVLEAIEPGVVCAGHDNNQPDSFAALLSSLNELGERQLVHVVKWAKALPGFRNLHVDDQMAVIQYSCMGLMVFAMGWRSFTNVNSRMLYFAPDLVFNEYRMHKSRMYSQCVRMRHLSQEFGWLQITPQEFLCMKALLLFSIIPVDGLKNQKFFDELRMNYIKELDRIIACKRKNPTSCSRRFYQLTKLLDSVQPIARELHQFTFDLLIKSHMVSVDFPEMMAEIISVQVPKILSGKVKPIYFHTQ
UniProt P10275, whole entry F877L/T878A: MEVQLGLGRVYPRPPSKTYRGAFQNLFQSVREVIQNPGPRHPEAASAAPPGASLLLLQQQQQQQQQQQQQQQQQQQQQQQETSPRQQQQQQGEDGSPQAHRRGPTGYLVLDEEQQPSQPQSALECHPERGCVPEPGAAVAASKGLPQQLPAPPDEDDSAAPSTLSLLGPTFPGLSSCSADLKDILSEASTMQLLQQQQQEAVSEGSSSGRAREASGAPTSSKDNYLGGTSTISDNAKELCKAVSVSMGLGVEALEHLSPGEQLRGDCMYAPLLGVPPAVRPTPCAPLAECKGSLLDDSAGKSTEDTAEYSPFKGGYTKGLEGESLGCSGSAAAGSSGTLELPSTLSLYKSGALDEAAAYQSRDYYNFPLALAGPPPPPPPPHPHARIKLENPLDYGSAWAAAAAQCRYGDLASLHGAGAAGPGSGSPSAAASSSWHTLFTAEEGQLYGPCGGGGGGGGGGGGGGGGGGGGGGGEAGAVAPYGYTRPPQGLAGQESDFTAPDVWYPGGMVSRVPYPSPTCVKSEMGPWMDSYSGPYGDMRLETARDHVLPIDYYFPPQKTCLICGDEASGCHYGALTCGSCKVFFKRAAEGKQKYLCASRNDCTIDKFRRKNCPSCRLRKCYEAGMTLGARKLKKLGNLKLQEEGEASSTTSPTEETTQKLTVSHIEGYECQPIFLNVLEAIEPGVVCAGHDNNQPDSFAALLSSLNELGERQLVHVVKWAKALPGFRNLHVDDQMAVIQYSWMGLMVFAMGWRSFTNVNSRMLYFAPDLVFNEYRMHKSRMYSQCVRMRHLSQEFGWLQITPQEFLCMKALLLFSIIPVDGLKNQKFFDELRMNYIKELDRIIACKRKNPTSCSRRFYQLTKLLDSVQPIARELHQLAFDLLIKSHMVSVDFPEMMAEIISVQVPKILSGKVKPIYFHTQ

Structure (SMILES): O=C1Sc2ccc(S(=O)(=O)Nc3ccc(O)cc3)c3cccc1c23
- IC50 [1]: 0.33 µM
- IC50 [2]: 0.06 µM
- IC50 [3]: 0.35 µM
- IC50 [4]: 0.35 µM
- IC50 [5]: 1.17 µM

From publication PMC11109662, “Discovery of Novel Anti‐Resistance AR Antagonists Guided by Funnel Metadynamics Simulation” (Advanced Science, 2024)
